How the values were obtained:
[1] = molecular target: organophosphate hydrolase (Brevundimonas diminuta, UniProt P0A434); details: cited from earlier work
maize callus = experiment: Effect of organophosphates on maize callus growth (FIG. 1); type: cell-based

Compound	rate of hydrolysis by organophosphate hydrolase compared with strong alkaline / non-enzymatic hydrolysis [1]	effect on new growth from maize callus (maize callus)
azinophos-methyl	thousands of times greater	
CC(C)OP(=S)(OC(C)C)SCCNS(=O)(=O)c1ccccc1		inhibitory effect

Source: patent US7060501B2 (priority 2002, dated 2006)
